The record followed here is patent US20190202836A1, “SELECTIVE DUAL INHIBITORS OF PI3 DELTA AND GAMMA PROTEIN KINASES” (Rhizen Pharmaceuticals SA, priority 2014, published 2019).

The chains behind the UniProt entries cited, without tags or fusion partners. Where a name states a change or a piece, a line headed by the entry shows the natural chain unless it says otherwise.
UniProt O00329, whole entry: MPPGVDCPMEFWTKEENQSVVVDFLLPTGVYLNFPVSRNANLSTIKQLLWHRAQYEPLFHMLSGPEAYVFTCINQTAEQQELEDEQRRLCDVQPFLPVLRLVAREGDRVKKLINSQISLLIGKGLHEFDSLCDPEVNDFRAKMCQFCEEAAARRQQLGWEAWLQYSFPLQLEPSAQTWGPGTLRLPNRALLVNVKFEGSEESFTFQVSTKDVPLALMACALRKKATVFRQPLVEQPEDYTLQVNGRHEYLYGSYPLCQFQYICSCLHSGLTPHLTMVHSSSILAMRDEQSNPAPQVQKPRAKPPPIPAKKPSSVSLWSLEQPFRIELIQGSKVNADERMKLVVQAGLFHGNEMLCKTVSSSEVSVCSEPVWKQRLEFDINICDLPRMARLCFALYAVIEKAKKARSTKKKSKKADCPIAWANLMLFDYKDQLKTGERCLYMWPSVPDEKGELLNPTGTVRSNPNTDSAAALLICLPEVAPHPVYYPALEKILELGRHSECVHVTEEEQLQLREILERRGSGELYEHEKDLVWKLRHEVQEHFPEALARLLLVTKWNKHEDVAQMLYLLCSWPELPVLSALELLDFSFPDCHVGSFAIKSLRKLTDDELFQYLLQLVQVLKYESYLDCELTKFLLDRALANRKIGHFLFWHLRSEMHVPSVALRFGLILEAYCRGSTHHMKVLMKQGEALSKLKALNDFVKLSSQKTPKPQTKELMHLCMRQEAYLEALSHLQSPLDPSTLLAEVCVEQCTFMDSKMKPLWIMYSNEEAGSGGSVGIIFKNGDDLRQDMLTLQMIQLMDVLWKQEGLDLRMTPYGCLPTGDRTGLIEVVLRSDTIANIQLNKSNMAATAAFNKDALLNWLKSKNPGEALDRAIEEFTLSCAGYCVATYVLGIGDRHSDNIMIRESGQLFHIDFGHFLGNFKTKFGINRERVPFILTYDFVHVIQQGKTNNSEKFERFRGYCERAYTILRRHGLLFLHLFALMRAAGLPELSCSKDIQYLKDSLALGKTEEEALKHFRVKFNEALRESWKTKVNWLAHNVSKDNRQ
UniProt P42336, whole entry: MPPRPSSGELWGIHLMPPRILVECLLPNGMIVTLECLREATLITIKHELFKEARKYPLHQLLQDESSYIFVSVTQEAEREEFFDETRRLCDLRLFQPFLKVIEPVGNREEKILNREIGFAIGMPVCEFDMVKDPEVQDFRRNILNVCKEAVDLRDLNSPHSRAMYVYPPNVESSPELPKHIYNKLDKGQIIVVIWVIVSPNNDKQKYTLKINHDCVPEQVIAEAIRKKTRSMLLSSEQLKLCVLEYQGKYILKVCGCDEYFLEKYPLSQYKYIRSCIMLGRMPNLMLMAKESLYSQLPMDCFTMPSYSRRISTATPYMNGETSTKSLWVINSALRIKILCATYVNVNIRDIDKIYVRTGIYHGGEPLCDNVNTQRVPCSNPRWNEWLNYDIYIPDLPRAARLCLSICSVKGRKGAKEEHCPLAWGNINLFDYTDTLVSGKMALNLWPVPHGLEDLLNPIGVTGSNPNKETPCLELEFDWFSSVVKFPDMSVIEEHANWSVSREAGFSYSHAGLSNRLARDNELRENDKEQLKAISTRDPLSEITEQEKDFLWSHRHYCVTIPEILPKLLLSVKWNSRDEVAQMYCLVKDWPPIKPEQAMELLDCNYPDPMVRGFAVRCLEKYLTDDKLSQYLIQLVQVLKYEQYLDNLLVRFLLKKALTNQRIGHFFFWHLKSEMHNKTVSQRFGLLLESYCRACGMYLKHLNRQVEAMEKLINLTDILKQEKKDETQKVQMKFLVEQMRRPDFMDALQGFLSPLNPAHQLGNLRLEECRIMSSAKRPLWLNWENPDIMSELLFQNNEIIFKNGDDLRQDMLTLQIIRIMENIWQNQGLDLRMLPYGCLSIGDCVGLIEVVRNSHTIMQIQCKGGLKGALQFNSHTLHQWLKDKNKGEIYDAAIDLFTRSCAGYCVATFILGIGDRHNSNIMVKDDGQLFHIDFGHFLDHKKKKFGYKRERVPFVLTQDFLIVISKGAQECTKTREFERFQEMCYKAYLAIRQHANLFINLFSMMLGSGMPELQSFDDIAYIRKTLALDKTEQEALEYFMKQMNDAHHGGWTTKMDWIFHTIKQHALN
UniProt P42338, whole entry: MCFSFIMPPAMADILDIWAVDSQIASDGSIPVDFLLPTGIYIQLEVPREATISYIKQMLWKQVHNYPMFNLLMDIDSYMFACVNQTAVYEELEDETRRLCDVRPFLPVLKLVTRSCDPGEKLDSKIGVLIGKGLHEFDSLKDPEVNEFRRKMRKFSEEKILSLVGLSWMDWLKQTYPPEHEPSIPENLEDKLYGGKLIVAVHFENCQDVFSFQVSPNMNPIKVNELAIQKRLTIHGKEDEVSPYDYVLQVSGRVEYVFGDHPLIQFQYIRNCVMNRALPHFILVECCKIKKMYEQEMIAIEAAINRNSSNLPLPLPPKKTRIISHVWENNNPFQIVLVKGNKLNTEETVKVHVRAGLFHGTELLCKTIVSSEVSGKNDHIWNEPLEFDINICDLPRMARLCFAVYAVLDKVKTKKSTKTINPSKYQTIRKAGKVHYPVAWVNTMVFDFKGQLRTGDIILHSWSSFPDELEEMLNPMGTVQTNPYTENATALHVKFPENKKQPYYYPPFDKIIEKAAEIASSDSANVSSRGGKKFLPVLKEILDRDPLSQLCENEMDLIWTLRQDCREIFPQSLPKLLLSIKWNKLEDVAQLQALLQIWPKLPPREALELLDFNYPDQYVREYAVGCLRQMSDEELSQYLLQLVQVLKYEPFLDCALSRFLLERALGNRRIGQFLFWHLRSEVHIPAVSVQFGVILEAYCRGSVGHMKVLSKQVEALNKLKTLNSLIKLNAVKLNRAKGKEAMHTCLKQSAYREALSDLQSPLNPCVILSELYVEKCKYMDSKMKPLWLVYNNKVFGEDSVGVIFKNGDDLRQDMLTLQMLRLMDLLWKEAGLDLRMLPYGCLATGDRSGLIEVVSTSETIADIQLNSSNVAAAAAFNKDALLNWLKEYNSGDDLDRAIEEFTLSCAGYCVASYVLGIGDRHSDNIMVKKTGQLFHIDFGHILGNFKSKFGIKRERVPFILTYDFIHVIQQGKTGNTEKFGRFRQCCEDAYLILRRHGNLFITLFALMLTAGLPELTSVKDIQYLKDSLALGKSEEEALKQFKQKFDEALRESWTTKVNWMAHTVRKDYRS
UniProt P48736, whole entry: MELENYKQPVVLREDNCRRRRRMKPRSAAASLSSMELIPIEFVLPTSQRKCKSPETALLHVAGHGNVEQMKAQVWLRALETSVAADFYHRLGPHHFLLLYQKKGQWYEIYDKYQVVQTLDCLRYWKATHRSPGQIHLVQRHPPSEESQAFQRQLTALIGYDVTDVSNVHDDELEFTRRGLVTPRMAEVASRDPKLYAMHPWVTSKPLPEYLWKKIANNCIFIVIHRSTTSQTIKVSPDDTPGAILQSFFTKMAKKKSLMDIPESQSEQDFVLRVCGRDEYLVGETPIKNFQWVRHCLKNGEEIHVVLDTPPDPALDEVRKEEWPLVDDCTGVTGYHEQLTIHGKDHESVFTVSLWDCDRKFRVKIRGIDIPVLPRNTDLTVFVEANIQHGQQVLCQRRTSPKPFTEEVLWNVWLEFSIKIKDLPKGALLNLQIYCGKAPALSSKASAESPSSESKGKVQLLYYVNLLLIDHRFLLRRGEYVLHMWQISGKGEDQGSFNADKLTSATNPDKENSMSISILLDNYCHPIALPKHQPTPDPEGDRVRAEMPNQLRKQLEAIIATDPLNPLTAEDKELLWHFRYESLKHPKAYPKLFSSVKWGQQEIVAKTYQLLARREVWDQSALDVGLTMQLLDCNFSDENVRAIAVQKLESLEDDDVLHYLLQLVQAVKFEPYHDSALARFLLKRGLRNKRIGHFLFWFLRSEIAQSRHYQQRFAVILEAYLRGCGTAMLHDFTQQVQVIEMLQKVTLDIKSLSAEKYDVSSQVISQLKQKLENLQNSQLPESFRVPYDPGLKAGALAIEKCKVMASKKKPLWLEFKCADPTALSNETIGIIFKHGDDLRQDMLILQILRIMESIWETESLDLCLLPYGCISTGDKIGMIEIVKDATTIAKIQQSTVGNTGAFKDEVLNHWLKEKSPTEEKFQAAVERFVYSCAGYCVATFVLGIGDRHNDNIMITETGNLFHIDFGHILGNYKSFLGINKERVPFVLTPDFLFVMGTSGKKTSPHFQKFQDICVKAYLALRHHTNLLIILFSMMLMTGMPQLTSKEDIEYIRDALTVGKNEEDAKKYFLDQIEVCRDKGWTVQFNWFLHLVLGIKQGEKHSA
UniProt P27986, whole entry partner: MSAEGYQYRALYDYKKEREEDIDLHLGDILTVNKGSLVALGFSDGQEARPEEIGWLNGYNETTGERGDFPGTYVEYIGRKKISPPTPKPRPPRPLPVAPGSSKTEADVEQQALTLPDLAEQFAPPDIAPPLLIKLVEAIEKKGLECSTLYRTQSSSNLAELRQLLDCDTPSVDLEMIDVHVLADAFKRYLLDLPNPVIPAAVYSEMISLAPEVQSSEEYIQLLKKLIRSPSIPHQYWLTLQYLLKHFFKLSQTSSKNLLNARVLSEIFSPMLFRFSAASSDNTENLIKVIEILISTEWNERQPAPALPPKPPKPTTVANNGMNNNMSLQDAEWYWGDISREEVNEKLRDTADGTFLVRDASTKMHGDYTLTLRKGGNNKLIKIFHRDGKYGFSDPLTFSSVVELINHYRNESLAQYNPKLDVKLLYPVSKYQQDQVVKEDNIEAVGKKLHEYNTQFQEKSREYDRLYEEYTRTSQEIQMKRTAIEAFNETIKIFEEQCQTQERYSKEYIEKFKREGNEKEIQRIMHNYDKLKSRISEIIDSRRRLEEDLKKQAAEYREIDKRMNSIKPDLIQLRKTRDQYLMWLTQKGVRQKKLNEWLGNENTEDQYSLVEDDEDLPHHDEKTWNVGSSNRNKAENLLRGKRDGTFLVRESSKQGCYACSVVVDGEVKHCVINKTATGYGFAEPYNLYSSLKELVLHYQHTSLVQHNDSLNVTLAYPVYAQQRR

As usually defined, the IC50 is the point on the concentration scale where inhibition reaches its midpoint. As usually defined, the Cmax is the maximum level reached in the sampled fluid or tissue. Usually Tmax stands for the time from dosing to the highest level.

In data set [1] the target is PI3Kδ (Homo sapiens, UniProt O00329). Put plainly: Assay 1: Fluorescent (HTRF) determination of PI3 kinase enzyme activity, PI3Kδ. The conditions noted are these: read-out: IC50 (nM) PI3Kδ. The text has this: (§1) Phosphoinositide 3 kinases (PI3K) belong to a class of lipid kinases that play a critical role in the regulation of several key cellular processes. The PI3K are capable of phosphorylating the 3-hydroxy position of phosphoinositols thereby generating second messengers involved in downstream signaling events. The homogenous time resolved fluorescence (HTRF) assay allows detection of 3,4,5-triphosphate (PIPS) formed as a result of phosphorylation of phosphotidylinositol 4,5-biphosphate (PIP2) by PI3K isoforms such as α, β, γ or δ.
(§2) PI3K isoform activity for α, β, γ or δ was determined using a PI3K human HTRF™ Assay Kit (Millipore, Billerica, Mass.) with modifications. All incubations were carried out at room temperature. 0.5 μl of 40× inhibitor (in 100% DMSO) or 100% DMSO were added to each well of a 384-well white plate (Greiner Bio-One, Monroe, N.C.) containing 14.5 μl 1× reaction buffer/PIP2 (10 mM MgCl2, 5 mM DTT, 1.38 μM PIP2) mix with or without enzyme, followed by 5 μl/well of 400 μM ATP and incubated for an additional 30 minutes. The reaction was terminated by adding 5 μl/well stop solution (Millipore, Billerica, Mass.). […] HRTF ratio was measured on a microplate reader (BMG Labtech., Germany) at an excitation wavelength of 337 nm and emission wavelengths of 665 and 615 nm with an integration time of 400 msec counting delay of 50 msec.
A general note: Time-resolved FRET reads energy transfer from a long-lived donor to a nearby acceptor.

Data set [2] is described as follows: Metabolic stability in mouse liver microsomes. Particulars: 1 μM test item, 60 minutes, 37° C., NADPH. The procedure:
(§3) Metabolic stability studies were conducted on Compounds A, A1, and A2 as well as Example 128 of WO 2012/151525 using mouse, rat, dog, monkey, and human liver microsomes. The protocol for the studies with mouse, rat, and human liver microsomes (all from BD Gentest, USA) is provided below. 0.4 mg protein was preincubated with 2 mM NADPH (cofactor) in phosphate buffer (pH-7.4) for 15 minutes at 37° C. and then added with 1 μM test item and incubated further for 60 minutes in triplicate. The reaction mixture was terminated with methanol containing an internal standard and centrifuged further to analyze the test item remaining in the supernatant by LC-MS/MS. The percent parent compound remaining was calculated in comparison with similar samples terminated at 0 minutes.
(In general: Liver microsomes are vesicles of endoplasmic reticulum, rich in cytochrome P450 enzymes.)

Data set [3] concerns the target PI3Kα (Homo sapiens, UniProt P42336). Put plainly: Assay 1: Fluorescent (HTRF) determination of PI3 kinase enzyme activity, PI3Kα.
Source text: as §1, §2

Data set [4] addresses PI3Kβ (Homo sapiens, UniProt P42338). Put plainly: Assay 1: Fluorescent (HTRF) determination of PI3 kinase enzyme activity, PI3Kβ.
Source text: as §1, §2

The target in data set [5] is PI3Kγ (Homo sapiens, UniProt P48736). Briefly: Assay 1: Fluorescent (HTRF) determination of PI3 kinase enzyme activity, PI3Kγ. The conditions noted are these: read-out: IC50 (nM) PI3Kγ.
Source text: as §1, §2

A short description of data set [6]: Oral pharmacokinetics in rats. Particulars: Rat, 10 mg/kg. As to the method:
The oral bioavailability of Compound A1 (free base) was evaluated in rats and mice. The protocol for the pharmacokinetics studies in rat is provided below.
All animals were fasted overnight (12 hours) before dosing and continued till 4.0 hours after administration of test item. Test item formulations were prepared in 1% Tween 80 and 99% media (0.5% Methyl cellulose, 4000cPs, pH 2.2). The blood samples (150 μL from each animal) were collected from the orbital sinus, and placed into a micro centrifuge tube containing disodium EDTA as an anticoagulant. Blood samples were centrifuged immediately with a speed of 1000 g for 10 min at 4° C. and separated plasma samples were frozen at below −80° C. and stored until analysis. The concentrations of test item in all formulations were analyzed by HPLC. The plasma concentrations of test item in all samples were analyzed by LC-MS/MS. Pharmacokinetic parameters (Cmax, AUC0-t, Tmax, and t^1/2) were estimated by using WinNonlin software. Results are provided in Table 3 for Compound A, A1, and Example 128 of WO 2012/151525 in rats and Compound A1 in mice.

The nature of data set [7]: Metabolic stability in rat liver microsomes. Particulars: 1 μM test item, 60 minutes, 37° C., NADPH. As to the method:
as §3

The nature of data set [8]: Metabolic stability in human liver microsomes. The conditions noted are these: 1 μM test item, 60 minutes, 37° C., NADPH. As to the method:
as §3

Molecules are shown by their SMILES.

As for `CC(c1oc2cccc(F)c2c(=O)c1-c1cccc(F)c1)n1nc(-c2cccc(NS(C)(=O)=O)c2)c2c(N)ncnc21` (centres unmarked), the IC50 in data set [1] amounted to 76 nM. In addition, the “Metabolic stability in liver microsomes (percent parent compound remaining), Mouse” value in data set [2] is reported as 85.0%. Moreover, the “% inhibition @ 1 μM, PI3Kα” value in data set [3] is on record as “NC (38.29*) %”. The “% inhibition @ 1 μM, PI3Kβ” value in data set [4] was “NC (51.04*) %”. Also, in data set [5], the half-maximal inhibitory concentration (IC50) came out at 70.7 nM. Moreover, in data set [6], the AUC0-t was determined as 2.01 µM·h, the Cmax was found to be 680 nM, the Tmax came out at 0.83 h and the t1/2 is 1.56 h. In addition, the “Metabolic stability in liver microsomes (percent parent compound remaining), Rat” value in data set [7] is listed as 73.3%. The “Metabolic stability in liver microsomes (percent parent compound remaining), Human” value in data set [8] worked out at 70.4%.
